# Yeast UUG start-1 = modulators of yeast start codon fidelity, primary screen, whole organism, S. cerevisiae, single point, plate reader | S. cerevisiae UUG-firefly luciferase reporter, luminescence/redox ratio | activity score, % at 18.7 µM | hit rate 0.13% among 350,000;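 active = replicate mean at a twofold rise or more, about +100% in these data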;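 note: firefly luciferase made from a UUG start codon reports start codon fidelity; reporter light over untreated wells divided by growth signal over untreated wells; some hits fall short of that in this replicate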
# dFosB act = activators of mouse delta FosB homodimer. P13346. 0.99% of 340,000 active. AID 493131. activation, % at 25 µM. purified delta FosB, TAMRA-CDK5 oligo fluorescence polarization; percent of positive-control signal above neutral wells;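 active means mean activation above about 17%, with every replicate also reaching it, limit read from the data, passing the limit was not always enough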
# CAL PDZ FP-1 = blocks peptide binding to human CAL PDZ domain | purified CAL PDZ, TMR-peptide fluorescence polarization, 1 h | Q9HD26 | AID 504414 | inhibition, % at 20 µM | 0.02% of 330,000 active;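 active means highest replicate inhibition of at least 40%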
#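 material = purified tagged CAL PDZ domain construct (CerCALP) | buffer or medium = sodium phosphate/NaCl buffer pH 7.4 with TCEP, IgG, Thesit | reagent = TMR-labelled reporter peptide T*-PRC34 bound in PDZ groove | incubation = 1 h room-temperature incubation prior to read | measured by = fluorescence polarization (mP) | evaluation = percent inhibition from loss of millipolarization | control set = unlabelled peptide and DMSO controls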
# Dyrk1A ADPGlo = blocks rat Dyrk1A kinase activity. Q63470. 0.43% of 310,000 active. ADP-Glo luminescence, NFATc1 peptide. inhibition, % at 12.5 µM. AID 504441; in the data active means inhibition above about 50%
# CDK5 p35 inh = CDK5/p35 (human) kinase inhibition; Q00535+Q15078; Recombinant CDK5/p35, ADP-Glo luminescence, 60 min; inhibition, % at 10 µM; 0.01% of 330,000 active; AID 488839;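 active means highest replicate inhibition of at least 50% and at least 75% of replicates reaching 50%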
# CAL PDZ FP-2 = CAL PDZ (human) peptide binding inhibition. Q9HD26. purified CAL PDZ, TMR-peptide fluorescence polarization, 1 h. inhibition, % at 24.9 µM. 0.92% of 300,000 active;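 active means mean inhibition of at least 30% with at least half of replicates also reaching 30%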
# Yeast UUG start-2 = alters UUG start codon use in yeast; activation, % at 38 µM; S. cerevisiae UUG-start firefly luciferase, luminescence, 4 h; 100% means double the DMSO signal; 540 tested, under 10 active; shares compounds with Yeast UUG start-1;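 active means signal increase whose fitted curve reaches an absolute level of 40 at a concentration under 10 µM; inactive means activity opposite to the expected increase, or the rest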
# A number is an active result; 0 = inactive; - = no result; ! = not confirmed by another sample. A selection: hits, their analogues and other compounds. The true share with any hit is near 1.7%.
SMILES,Yeast UUG start-1,dFosB act,CAL PDZ FP-1,Dyrk1A ADPGlo,CDK5 p35 inh,CAL PDZ FP-2,Yeast UUG start-2
COc1ccccc1-c1cnc2c(c1)C(=O)N([C@@H](C)CO)C[C@@H](C)[C@H](CN(C)C(=O)c1cccnc1)O2,200!,-,-,-,-,-,0
COc1ccc(-c2cnc3c(c2)C(=O)N([C@@H](C)CO)C[C@@H](C)[C@H](CN(C)Cc2cccnc2)O3)cc1,145,-,-,-,-,-,0
COc1ccccc1-c1cnc2c(c1)C(=O)N([C@@H](C)CO)C[C@@H](C)[C@@H](CN(C)Cc1ccncc1)O2,137,-,-,-,-,-,0
C[C@H](CO)N1C[C@H](C)[C@@H](CN(C)Cc2cncnc2)Oc2ncc(/C=C/c3ccccc3)cc2C1=O,250,-,-,-,-,-,0
C[C@H](CO)N1C[C@H](C)[C@H](CN(C)Cc2ccncc2)Oc2ncc(-c3cccc(C#N)c3)cc2C1=O,110,-,-,-,-,-,0
C[C@@H](NC(=O)[C@@H]1[C@@H](CO)[C@@H]2Cn3c(cccc3=O)[C@H]1N2C(=O)C1CCCC1)c1ccccc1,0,-,-,-,-,-,-
Nc1c(-c2ccccc2)nc(Cl)nc1-c1ccccc1,133,0,0,0,0,0,0
Cc1cccc(S(=O)(=O)N2CCCCN3[C@H](CO)[C@H](c4ccc(C#CC(C)C)cc4)[C@@H]3C2)c1,0,-,-,-,-,-,-
O=C(C[C@H]1C[C@@H]2c3cc(NC(=O)C4CCOCC4)ccc3O[C@@H]2[C@H](CO)O1)NC1CCCC1,102,-,-,-,-,-,0
O=C(C[C@@H]1C[C@H]2c3cc(NC(=O)C4CCC4)ccc3O[C@H]2[C@H](CO)O1)NCC1CC1,104,-,-,-,-,-,0
COCC(=O)Nc1ccc2c(c1)[C@@H]1C[C@H](CC(=O)NC3CCCCC3)O[C@H](CO)[C@@H]1O2,107,-,-,-,-,-,0
O=C(C[C@@H]1C[C@H]2c3cc(NC(=O)C4CCOCC4)ccc3O[C@H]2[C@@H](CO)O1)NC1CCCC1,0,-,-,-,-,-,-
NCC[C@H]1CC[C@@H](NC(=O)CCN2CCCCC2)[C@H](CO)O1,0,-,-,-,-,-,-
CC1(C)CC(=O)C2=C(C1)NC(=S)C(C#N)C21CCCCC1 (configuration not stated),110,0,0,-,0,0,0
Cc1cc(Cl)ccc1NC(=S)NCCC(c1ccccc1)c1ccccc1,112,0,0,0,0,0,0
Cc1c(Cl)cccc1NC(=S)NCCC(c1ccccc1)c1ccccc1,0,0,0,0,0,0,-
COc1ccc(-c2oc(NC(=O)CSc3ncn[nH]3)c(C#N)c2-c2ccc(OC)cc2)cc1,-,0,0,0,0,0,-
COc1ccc(-c2oc(NC(=O)CCl)c(C#N)c2-c2ccc(OC)cc2)cc1,308,0,0,0,0,0,0
COc1ccc(OC)c(NC(=O)Cc2nn(C)c(=O)c3ccccc23)c1,0,0,0,0,0,-,0
COc1ccc(N2CCN(C(=O)Cc3nn(C)c(=O)c4ccccc34)CC2)cc1,0,0,0,0,0,0,0
Cn1nc(CC(=O)Nc2cccc3ncccc23)c2ccccc2c1=O,0,0,0,0,0,0,0
Cc1nn(CC(=O)N2CCN(c3ccccc3)CC2)c(=O)c2ccccc12,0,0,0,0,0,0,0
COc1ccc(NC(=O)N(C)C[C@@H]2OCCCC[C@H](C)Oc3ccc(NC(=O)CCCN(C)C)cc3C(=O)N([C@H](C)CO)C[C@@H]2C)cc1,0,-,-,-,-,-,-
COc1ccc(OC)c(NC(=O)Cn2cc(C(=O)c3ccco3)c3ccccc32)c1,134,0,0,0,0,0,0
COc1ccc(NC(=O)Nc2ccc3c(c2)[C@H]2C[C@H](CC(=O)NCc4ccccc4F)O[C@H](CO)[C@H]2O3)cc1,0,-,-,-,-,-,-
SMILES,Yeast UUG start-1,dFosB act,CAL PDZ FP-1,Dyrk1A ADPGlo,CDK5 p35 inh,CAL PDZ FP-2,Yeast UUG start-2
CN(N=Nc1ccccc1C(=O)O)C1CCCCC1,169,-,-,-,-,-,0
CN(C(=O)c1ccccc1Cl)C1CCCCC1,0,0,0,0,0,0,-
CCc1ccccc1Nc1nc2ccccc2[nH]1,0,-,-,-,-,-,-
COc1ccccc1Nc1nc2ccccc2[nH]1,0,0,0,0,0,0,0
COc1ccc(S(=O)(=O)N2CCN(CCCOc3ccc(F)cc3)CC2)cc1OC,303,0,0,0,0,0,0
COc1ccc(S(=O)(=O)N2CCN(c3ccc(F)cc3)CC2)cc1OC,0,0,0,0,0,0,-
O=C(CSc1nnc2c(n1)[nH]c1ccccc12)OCc1ccccc1,410,0,0,0,0,-,0
O=C(O)CSc1nnc2c(n1)[nH]c1ccccc12,-,0,0,0,0,0,-
CCN(CCCNc1cc2c(c(N)c1S(=O)(=O)O)C(=O)c1ccccc1C2=O)c1ccccc1,135,-,-,-,-,-,0
O=C(C[C@H]1C[C@@H]2c3cc(NS(=O)(=O)c4ccc(F)cc4)ccc3O[C@@H]2[C@@H](CO)O1)NCc1ccncc1,0,-,-,-,-,-,-
CC1C/C(=C/c2ccncc2)C(=O)/C(=C/c2ccncc2)C1 (configuration not stated),302,0,0,0,0,0,0
CN(C)C(=O)C[C@@H]1C[C@H]2c3cc(NC(=O)Nc4ccccc4F)ccc3O[C@H]2[C@H](CO)O1,47,-,-,-,-,-,0
CN(C)CC(=O)Nc1ccc2c(c1)[C@@H]1C[C@@H](CC(=O)NCc3cccc(F)c3)O[C@@H](CO)[C@@H]1O2,55,-,-,-,-,-,0
CN(C)C(=O)C[C@H]1C[C@@H]2c3cc(NC(=O)Nc4ccccc4F)ccc3O[C@@H]2[C@@H](CO)O1,0,-,-,-,-,-,-
CN(C)CC(=O)Nc1ccc2c(c1)[C@@H]1C[C@@H](CC(=O)NCc3cccc(F)c3)O[C@H](CO)[C@@H]1O2,0,-,-,-,-,-,-
CN(C)C(=O)C[C@@H]1C[C@@H]2c3cc(NC(=O)Nc4ccccc4F)ccc3O[C@@H]2[C@@H](CO)O1,127,-,-,-,-,-,0
CN(C)C(=O)C[C@H]1C[C@H]2c3cc(NC(=O)Nc4ccccc4F)ccc3O[C@H]2[C@H](CO)O1,0,-,-,-,-,-,-
O=C(C[C@@H]1CC[C@H](NC(=O)c2cccc(F)c2)[C@@H](CO)O1)NCc1ccc(Oc2ccccc2)cc1,145,-,-,-,-,-,0
C[C@@H]1CN([C@H](C)CO)C(=O)c2cc(NC(=O)Nc3ccccc3)ccc2O[C@@H](C)CCCCO[C@@H]1CN(C)Cc1ccc(C(F)(F)F)cc1,0,-,-,-,-,-,-
CCC(=O)Nc1ccc2c(c1)C(=O)N(C)C[C@@H](OC)[C@@H](C)CN(C(=O)c1ccccn1)[C@@H](C)CO2,0,-,-,-,-,-,-
C[C@H](CO)N1C[C@H](C)[C@H](CN(C)C(=O)C2CCOCC2)Oc2cc(C#Cc3ccncc3)ccc2S1(=O)=O,191,-,-,-,-,-,0
CNC[C@H]1Oc2cc(C#Cc3ccncc3)ccc2S(=O)(=O)N([C@H](C)CO)C[C@H]1C,129,-,-,-,-,-,0
COc1ccc(C(=O)Nc2ccc3c(c2)OC[C@@H](C)N(C(C)=O)C[C@@H](C)[C@H](OC)CN(C)C3=O)cc1,0,-,-,-,-,-,-

# Source: PubChem (Broad Institute)
